In patent publication US9376469B2, “Proteolytically resistant hydrogen bond surrogate helices” (New York University, priority 2011, dated 2016):

Assays:
trypsin = test: Trypsin digestion assay; assay type: in vitro ADME; details: 1 ng/μL trypsin, 500 μM peptide, PBS, 4° C.
serum proteases = test: Serum stability assay; assay type: in vitro ADME; details: 25% human serum in RPMI, 37° C., after 24 hours, LCMS

In the case of `CC(C)C[C@H](NC(=O)[C@H](CC(C)C)NC(=O)[C@H](CCCCN)NC(=O)[C@H](Cc1c[nH]c2ccccc12)NC(=O)[C@H](CC(C)C)NC(=O)[C@H](CC(=O)O)NC(=O)[C@H](CO)NC(=O)[C@H](Cc1ccccc1)NC(=O)CN1CC=CCCC(=O)N[C@@H](CCC(N)=O)C(=O)N[C@@H](CCC(=O)O)C1=O)C(=O)N[C@@H](CO)C(N)=O` [Peptide 2, XQEG*FSDLWKLLS-NH2 (SEQ ID NO: 6)], the “Time to complete degradation by trypsin” value (trypsin) is reported as at most 1 h and the “Stability in human serum, in words” value (serum proteases) is reported as “A majority of peptide 2 was degraded”.
